How the values were obtained:
human PDE4D isozyme = human PDE4D isozyme (Homo sapiens, UniProt Q08499); experiment: IC50 for human PDE4D isozyme (Table 4); type: biochemical; settings: read-out: IC50 for human PDE4D isozyme, hPDE4D; tested form: hydrochloride
Method: (§1) In-vitro assay for PDE4 enzymes. The in-vitro activity of PDE4 enzymes and the in-vitro potency of therapeutic agents described in the present invention was measured using a real-time, enzyme-coupled spectrophotometric assay. By using three different coupling enzymes, the product of the PDE4 reaction is coupled to the oxidation of the reduced form β-nicotinamide adenine dinucleotide (NADH), which dissipation can be monitored spectrophotmetrically at […]. Assay description. Buffer A containing 50 mM Tris, pH 8.0, 16 mM MgCl2 and 80 mM KCl is prepared and stored at room temperature. Buffer B containing 50 mM Tris, pH 8.0 is prepared and stored at toom temperature. Stock solutions of the following reagents are prepared in Buffer B and stored at −20° C.: Adenosine-5′-triphosphate (ATP), cyclic adenosine-5′-monophosphate (cAMP), phosphoenolpyruvate (PEP) and NADH. An assay mix is prepared by mixing Buffer A, […] (TCEP), ATP, PEP, NADH, myokinase (MK), pyruvate kinase (PK), lactate dehydroganese (LDH) and PDE4 to a final volume of 20 mL, which is enough for a single 96-well assay plate. […] Reaction progress curves are monitored in a plate reader capable of measuring light absorbance at 340 nm. A decrease in light absorbance at 340 nm is due to oxidation of NADH. […] Reaction rates are determined from the slopes of the linear portions of the progress curves. […]

By UniProt entry, the sequences of proteins in these tests, tags left out.
UniProt Q08499, whole entry: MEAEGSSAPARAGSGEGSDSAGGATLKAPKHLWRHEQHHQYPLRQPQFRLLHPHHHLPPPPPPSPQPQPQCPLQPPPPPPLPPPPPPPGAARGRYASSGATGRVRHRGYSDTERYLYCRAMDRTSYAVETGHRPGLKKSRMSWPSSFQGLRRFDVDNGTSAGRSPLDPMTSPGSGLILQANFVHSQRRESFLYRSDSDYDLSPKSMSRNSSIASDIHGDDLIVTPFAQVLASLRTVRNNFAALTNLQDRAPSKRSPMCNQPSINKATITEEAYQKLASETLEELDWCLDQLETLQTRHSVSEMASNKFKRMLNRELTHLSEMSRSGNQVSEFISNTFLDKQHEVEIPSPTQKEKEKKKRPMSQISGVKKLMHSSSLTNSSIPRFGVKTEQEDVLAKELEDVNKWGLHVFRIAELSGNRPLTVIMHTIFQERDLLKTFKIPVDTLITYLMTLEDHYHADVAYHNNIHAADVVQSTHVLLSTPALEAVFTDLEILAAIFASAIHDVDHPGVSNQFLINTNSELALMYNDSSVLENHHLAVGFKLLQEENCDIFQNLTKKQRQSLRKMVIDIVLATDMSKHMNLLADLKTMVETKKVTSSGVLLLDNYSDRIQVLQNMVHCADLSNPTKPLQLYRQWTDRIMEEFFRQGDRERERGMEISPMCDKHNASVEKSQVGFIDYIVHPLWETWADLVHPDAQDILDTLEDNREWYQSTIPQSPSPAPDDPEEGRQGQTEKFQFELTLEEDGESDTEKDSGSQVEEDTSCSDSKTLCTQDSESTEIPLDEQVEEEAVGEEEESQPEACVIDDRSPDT
UniProt Q07343, whole entry: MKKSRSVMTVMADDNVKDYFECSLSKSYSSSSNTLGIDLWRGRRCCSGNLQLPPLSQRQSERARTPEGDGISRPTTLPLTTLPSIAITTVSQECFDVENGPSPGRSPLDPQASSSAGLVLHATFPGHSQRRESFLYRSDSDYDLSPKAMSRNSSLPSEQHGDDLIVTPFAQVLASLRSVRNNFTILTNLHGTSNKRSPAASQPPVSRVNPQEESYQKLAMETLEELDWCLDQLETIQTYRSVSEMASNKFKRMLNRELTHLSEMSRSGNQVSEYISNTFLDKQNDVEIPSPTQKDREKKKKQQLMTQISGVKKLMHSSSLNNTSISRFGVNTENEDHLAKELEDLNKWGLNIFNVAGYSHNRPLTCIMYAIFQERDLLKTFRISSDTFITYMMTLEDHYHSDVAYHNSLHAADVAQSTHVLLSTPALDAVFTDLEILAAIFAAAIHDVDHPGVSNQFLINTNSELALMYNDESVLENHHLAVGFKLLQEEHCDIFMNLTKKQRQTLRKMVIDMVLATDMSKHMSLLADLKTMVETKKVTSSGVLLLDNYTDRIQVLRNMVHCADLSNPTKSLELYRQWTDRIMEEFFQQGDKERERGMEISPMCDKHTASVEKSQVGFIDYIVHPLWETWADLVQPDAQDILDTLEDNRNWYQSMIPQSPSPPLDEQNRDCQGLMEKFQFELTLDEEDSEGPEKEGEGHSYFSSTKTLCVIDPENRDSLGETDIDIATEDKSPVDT

human PDE4B isozyme = human PDE4B isozyme (Homo sapiens, UniProt Q07343); experiment: IC50 for human PDE4B isozyme (Table 5); type: biochemical; settings: read-out: IC50 for human PDE4B isozyme, hPDE4B; tested form: hydrochloride
Method: as §1

NC1CCN(Cc2cc3scnc3c(-c3cccc(Cl)c3)c2F)CC1
IC50 (human PDE4D isozyme): < 5 µM | IC50 (human PDE4B isozyme): 5 to 20 µM
